Data from PubChem BioAssay AID686970 (National Center for Advancing Translational Sciences (NCATS), 2013).
This is a selection; strong and weak results do not stand in their true shares. Results filed as inconclusive are left out. The source made the active and inactive calls. Calls follow the shape of the dose curve; as a rule, active = well fitted cell-killing curve with a large enough effect; inconclusive = small, poorly fitted or top-dose-only effect, or effect the other way; inactive = flat fitted curve, though single readings scatter.

test: qHTS for induction of synthetic lethality in tumor cells producing 2HG: qHTS for the HT-1080-NT fibrosarcoma cell line; settings: HT-1080-NT fibrosarcoma viability, CellTiter-Glo ATP luminescence, 48 h; at 46.1 µM (top of the series) unless noted;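 also: NT is the 2HG producing partner of a matched IDH1 knockdown line; 0% = DMSO-treated cells and -100% = media-only wells without cells; nearly all actives have a fitted effect of over 55% in size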

Structure (SMILES) | activity, negative = less viability
O=C(O)C1(Nc2ccccc2)CCN(Cc2ccccc2)CC1 | inactive: 2.54%
NN(c1ccccc1)C1CCN(CCc2ccccc2)CC1 | inactive: 0.0808%
CC(C)(C)OC(=O)N1CCC(Nc2ccccc2)CC1 | inactive: 18.3%
CCCOc1ccc(C(=O)NCC2(N(C)C)CCCCC2)cc1 | inactive: -4.16%
CN1CCC(Nc2ccc(F)c(Cl)c2)CC1 | inactive: -8.6%
CCOc1ncccc1C(=O)NCC1(N2CCOCC2)CCCCC1 | inactive: 8.16%
CN1CCC(Nc2ccc(Cl)cc2)CC1 | inactive: -1.98%
COc1cc(OC)cc(C(=O)NCC2(N3CCOCC3)CCCCC2)c1 | inactive: 2.02%
COc1cccc(C(=O)N(c2cc(C)cc(C)c2)C2CCN(C(=O)OC(C)(C)C)CC2)c1 | inactive: 10.7%
CCC(CO)(C(=O)OC1CN2CCC1CC2)c1ccccc1 (stereo unspecified) | inactive: 1.37%
Fc1ccccc1NC1CCN(Cc2ccccc2)CC1 | inactive: 0%
Cc1ccc(C(=O)NCC2(N3CCCCC3)CCCCC2)o1 | inactive: 8.01%
Cc1ccc(NC2(C#N)CCN(Cc3ccccc3)CC2)cc1 | inactive: 0.728%
CCC(c1nnnn1C1CCCCC1)N1CCC(n2c(=O)[nH]c3ccccc32)CC1 (stereo unspecified) | inactive: 1.52%
CC(=O)N(c1ccccc1)C1CCNCC1 | inactive: 15%
O=c1[nH]c2ccccc2n1C1CCN(C(c2ccnc3ccccc23)c2nnnn2C2CCCCC2)CC1 (stereo unspecified) | inactive: -22%
COc1cc(OC)cc(C(=O)NCC2(N3CCCCC3)CCCCC2)c1 | inactive: 3.61%
Cn1c(=O)[nH]cc(N(CCCl)CCCl)c1=O | inactive: 0.0667%
CN(C)c1ccc(C(=O)NCC2(N3CCCCC3)CCCCC2)cc1 | inactive: 5.8%
O=C(NCC1(N2CCCCC2)CCCCC1)c1ccco1 | inactive: -1.9%
CC(C)(C)n1nnnc1C(c1ccnc2ccccc12)N1CCC(n2c(=O)[nH]c3ccccc32)CC1 (stereo unspecified) | inactive: -24.9%

Structure (SMILES) | activity, negative = less viability
CCN1CCC(Nc2cccc(F)c2)CC1 | inactive: 19.7%
COc1ccc(C(c2nnnn2C2CCCCC2)N2CCC(n3c(=O)[nH]c4ccccc43)CC2)cc1 (stereo unspecified) | inactive: 23.2%
Cc1ccccc1NC1(C#N)CCN(Cc2ccccc2)CC1 | inactive: 13.4%
CCOC(=O)C(CC)C1=NC(C)(C)Cc2ccccc21.O=[N+]([O-])c1cc([N+](=O)[O-])c(O)c([N+](=O)[O-])c1 (stereo unspecified) | inactive: 7.77%
N#Cc1ccc(C(=O)NCC2(N3CCCCC3)CCCCC2)cc1 | inactive: 2.19%
CC(C)(C)OC(=O)N1CCC(N(C(=O)c2ccccc2)c2ccc(Cl)cc2)CC1 | inactive: -15.7%
CN(C)C1(CNC(=O)c2cccc(C#N)c2)CCCCC1 | inactive: 3.18%
Cc1cc(N(CCCl)CCCl)ccc1C=O | inactive: -5.56%
CCCN1CCC(Nc2cc(OC)cc(OC)c2)CC1 | inactive: -20.6%
O=c1[nH]c2ccccc2n1C1CCN(C(c2ccccc2)c2nnnn2C2CCCC2)CC1 (stereo unspecified) | inactive: -19.8%
c1ccc(CN2CCC(Nc3ccccc3)CC2)cc1 | inactive: 6.95%
COc1ccc(C(=O)NCC2(N3CCOCC3)CCCCC2)cc1OC | inactive: 2.29%
COc1cc(C(=O)NCC2(N3CCOCC3)CCCCC2)cc(OC)c1C | inactive: 1.16%
CCCCn1nnnc1C(c1ccccc1)N1CCC(n2c(=O)[nH]c3ccccc32)CC1 (stereo unspecified) | inactive: -11.5%
O=C(NCC1(N2CCOCC2)CCCCC1)c1cc(Br)ccc1Cl | inactive: -0.0262% [at 9.24 µM]
O=c1[nH]c2ccccc2n1C1CCN(C(c2cccs2)c2nnnn2C2CCCC2)CC1 (stereo unspecified) | inactive: -29.8%
O=C(O)c1cccc(Nc2c([N+](=O)[O-])cc([N+](=O)[O-])cc2[N+](=O)[O-])c1 | inactive: -2.55%
O=C(OC1CN2CCC1CC2)C1c2ccccc2C=Cc2ccccc21 (stereo unspecified) | inactive: 2.02%
CCc1cc(C(=O)NCC2(N3CCCCC3)CCCCC2)sc1C | inactive: -7.07%
CCCCn1nnnc1C(c1cccc(OC)c1OC)N1CCC(n2c(=O)[nH]c3ccccc32)CC1 (stereo unspecified) | inactive: -26.6%
COc1cccc(C(c2nnnn2C(C)(C)C)N2CCC(n3c(=O)[nH]c4ccccc43)CC2)c1OC (stereo unspecified) | inactive: -9.54%

Structure (SMILES) | activity, negative = less viability
CCOC(=O)N1CCC(Nc2ccc(C)cc2)CC1 | inactive: 11.7%
N/C(=N\O)c1c(N)no[n+]1[O-] | inactive: 19.7%
CCC(c1nnnn1C(C)(C)C)N1CCC(n2c(=O)[nH]c3ccccc32)CC1 (stereo unspecified) | inactive: 20.1%
O=C(NCC1(N2CCOCC2)CCCCC1)c1cc(F)c(F)cc1Cl | inactive: 7.29%
CCN(CC)CCCNc1ccccc1[N+](=O)[O-].O=[N+]([O-])c1cc([N+](=O)[O-])c(O)c([N+](=O)[O-])c1 | inactive: -24.6%
COc1cc(OC)c(C(=O)NCC2(N(C)C)CCCCC2)cc1OC | inactive: 8.64%
CC(C)c1ccc(NC2CCN(C(=O)OC(C)(C)C)CC2)cc1 | inactive: -20.4%
O=[N+]([O-])c1cc([N+](=O)[O-])c(OC2CCCCC2O)c([N+](=O)[O-])c1 (stereo unspecified) | inactive: -12.5%
CN(C)c1cccc(C(=O)NCC2(N3CCCCC3)CCCCC2)c1 | inactive: 26.3%
COc1ccc(CN(CCCl)CCCl)cc1Cl | inactive: 3.31%
CCCOc1ccc(C(=O)NCC2(N(C)C)CCCCC2)cc1OC | inactive: -1.79%
Cc1ccc(C(=O)NCC2(N(C)C)CCCCC2)o1 | inactive: 7.69%
O=C(OC1CN2CCC1CC2)c1ccc([N+](=O)[O-])cc1 (stereo unspecified) | inactive: -1.87%
O=C(NCC1(N2CCCCC2)CCCCC1)c1cncc(Br)c1 | inactive: 0%
CN1CCC(Nc2cccc(F)c2)CC1 | inactive: 5.54%
N#CC1(Nc2ccccc2)CCN(CCc2ccccc2)CC1 | inactive: 12.2%
O=c1[nH]c2ccccc2n1C1CCN(C(c2ccccc2OC(F)(F)F)c2nnnn2C2CCCC2)CC1 (stereo unspecified) | inactive: 3.89%
CCN1CCC(Nc2ccc(Cl)cc2)CC1 | inactive: -1.11%
O=C(NCC1(N2CCCCC2)CCCCC1)c1cccc([N+](=O)[O-])c1 | inactive: -3.52%
